Results: patent publication US9303062B2, “Solid oxidized glutathione salt and method for producing same” (priority 2011, dated 2016)

Experiment: Deliquescency of powder at 25° C., normal pressure, 75% RH, observed with naked eyes
Format: physicochemical
Conditions: relative humidity 75% RH
Description: The solid oxidized glutathione salt obtained as described above has low deliquescency and high water solubility. The deliquescency of the solid oxidized glutathione can be evaluated by allowing a powder of the salt to stand in an environment at a temperature of 25° C., normal pressure, e.g. 1 atmospheric pressure, and a relative humidity of 75% RH, and observing whether deliquescence starts or not with naked eyes.
Each of the powders of the solid-state oxidized glutathione salt obtained in the above respective Examples was allowed to stand in atmospheric condition of a temperature of 25° C., normal pressure and a relative humidity of 75% RH. After 2 hours or 24 hours, it was determined whether or not deliquescence was is present by observing the occurrence of shape change with naked eyes. For comparison, the deliquescencies of the above commercially available solid oxidized glutathiones were investigated in the same manner.

## oxidized glutathione monoammonium salt [Example 2]
After 2 hours
  Deliquescency 2 hours: no
After 24 hours
  Deliquescency 24 hours: no
